# Experimental data as given in PubChem BioAssay AID624287 (National Center for Advancing Translational Sciences (NCATS), 2012).
# The entries are a selection whose mix differs from that of the whole data set. Inconclusive results are not listed. Calls of active or inactive are those of the source. Calls follow the shape of the dose curve; as a rule, active = well fitted activation curve with a large enough effect; inconclusive = small, poorly fitted or top-dose-only effect, or another doubt; inactive = no such curve, though single readings can be large or run the other way; cell line not stated here.
# Assay: qHTS for Agonist of gsp, the Etiologic Mutation Responsible for Fibrous Dysplasia/McCune-Albright Syndrome: qHTS;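 also: phosphodiesterase inhibitor Ro 20-1724 added with compounds to block cAMP breakdown; nearly all actives have a fitted effect of over 60% in size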
# Details: gsp mutant cells, cAMP HTRF, 30 min; at 76.9 µM (top of the series) unless noted
row,SMILES,activation (cAMP increase)
1,CCOC(=O)c1ccc(NP(C)(=O)Oc2ccc(F)cc2)cc1 (centres undefined),inactive: 1.65% [at 15.4 µM]
2,COc1ccc(OP(C)(=O)Nc2ccc(SC(F)(F)F)cc2)cc1 (centres undefined),inactive: -9.69% [at 15.4 µM]
3,CC(=O)NC(SC(=S)N(C)C)C(Cl)(Cl)Cl (centres undefined),inactive: 3.8%
4,O=[N+]([O-])c1ccc(O)c(/C=N/Nc2ccc([N+](=O)[O-])cc2[N+](=O)[O-])c1,inactive: 1.24%
5,Cc1cc(-c2cccc3ccccc23)c(C)cn1.O=[N+]([O-])c1cc([N+](=O)[O-])c(O)c([N+](=O)[O-])c1,inactive: -14.5% [at 15.4 µM]
6,O=[As](O)(c1ccccc1)c1ccc(O)cc1,inactive: -8.07% [at 15.4 µM]
7,Nc1ccc([As](=O)(O)c2ccc([N+](=O)[O-])cc2)cc1,inactive: -26.9% [at 15.4 µM]
8,C(Cc1nn[nH]n1)Cc1nn[nH]n1,inactive: 15.1%
9,O=C(OC1CN2CCC1CC2)c1cccc(Cl)c1 (centres undefined),inactive: 7.9%
10,COc1ccc(N)c([N+](=O)[O-])c1[N+](=O)[O-],inactive: 8.4%
11,COc1ccc(OP(C)(=O)Nc2cccc(Br)c2)cc1 (centres undefined),inactive: 10.4%
12,CN(C)C1(CNC(=O)c2ccc(Cl)c(S(N)(=O)=O)c2)CCCCC1,inactive: 10.8% [at 15.4 µM]
13,O=P(Nc1ccccn1)(c1ccc(Br)cc1)c1ccc(Br)cc1,inactive: 11.9%
14,C[C@H]1OP(=O)(Oc2ccccc2)[C@H](O)[C@H](O)[C@H]1N=[N+]=[N-] (some centres undefined),inactive: 7.87%
15,O=P(Nc1nc2ccccc2s1)(c1ccccc1)c1ccccc1,inactive: 3.35% [at 15.4 µM]
16,CN(C)CCOC(=O)C(O)(c1ccccc1)C1CCCCC1 (centres undefined),inactive: -0.521%
17,COc1ccc(NP(C)(=O)Oc2ccccc2OC)cc1 (centres undefined),inactive: 1.18% [at 15.4 µM]
18,CP(=O)(Nc1ccc2c(c1)OCCO2)Oc1ccccc1 (centres undefined),inactive: 11.2%
19,Cc1ccccc1NP(C)(=O)Nc1ccccc1C,inactive: -48.4%
20,CP(=O)(Nc1ccc(SC(F)(F)F)cc1)Oc1ccc(F)cc1 (centres undefined),inactive: 1.55%
21,O=P(Nc1nccs1)(c1ccccc1)c1ccccc1,inactive: -2.23%
22,CC(C)C(=O)NC(Sc1ccccc1)C(Cl)(Cl)Cl (centres undefined),inactive: -1.51% [at 15.4 µM]
23,CCOP(C)(=S)SCC(=O)NC(C)(CC)C(=O)O (centres undefined),inactive: -10.2%
24,c1nnnn1CCn1cnnn1,inactive: -9.87%
